Measurements from patent publication US6303749A, “Agouti and agouti-related peptide analogs” (Amgen Inc., priority 1999, dated 2001).
Where “and” joins values, the source holds several entries; their conditions need not be identical. Equal entries are not always repeated. Bridge positions count the residues as written; N and C are the ends. Ends that are not written are not given here.

What was measured:
[1] = molecular target: T1, human melanocortin-3 (MC-3) receptors (Homo sapiens, UniProt P41968); test: Melanocortin receptor binding assay, 125I-NDP-alpha-MSH competition, MC-3; conditions: HEK 293 cell membranes; about […] 125I-NDP-α-MSH; 180 minutes at 25 C; read-out: hMC3 IC50 (nM) 125I NDP-MSH
T1 construct: expressed in transfected cells; membrane fraction used
Description: Human embryonic kidney (HEK) 293 cells stably expressing human melanocortin-3 (MC-3) or human melanocortin-4 (MC-4) receptors were used for ^125 I-[Nle4,dPhe7]α-melanocte stimulating hormone (NDP-α-MSH) and ^125 I-AGRP radioligand binding studies.
For ^125 I-NDP-α-MSH binding, cells were collected in phosphate buffered saline (PBS) and homogenized in Buffer A containing about 25 mM HEPES and about 0.32 M sucrose (pH 7.4), after which the homogenate was spun at 48,000×g for 12 minutes. The resulting pellet, which contained the cell membrane fraction, was resuspended in Buffer B containing about 25 mM HEPES, Modified Eagle's medium (without phenol red), about 0.1 percent bovine serum albumin (BSA), about 0.1 mg/ml soybean trypsin inhibitor (STI) and about 0.1 mg/ml 4-(2-aminoethyl)-benzenesulfonyl fluoride (AEBSF) (pH 7.4), and spun at 48,000×g for 12 minutes. This step was repeated one additional time, and the final pellet was resuspended in Buffer B to a concentration of about 4 mg wet weight of cell membrane per ml.
The binding reaction was initiated by the addition of cell membrane extract (about 50 μl) to wells containing about 0.15 nM ^125 I-NDP-α-MSH (2000 Ci/mmole, Amersham, Arlington Heights, Ill.) and varying concentrations of unlabeled AGRP/ASP peptides. The final assay volume was 100 μl. The reaction mixture was incubated for about 180 minutes at 25 C. and the reaction was terminated by filtration over Unifilter 96 glass fiber filter plates that had been pre-soaked in 0.1 percent polyethylenimine (PEI). Filters were rinsed with ice-cold water, followed by the addition of about 37 μl of Packard MicroScint to each filter well. Radioactivity was quantified using a Packard TopCount. Each concentration of unlabeled AGRP/ASP peptide was tested in triplicate.

[2] = molecular target: T2, human melanocortin-4 (MC-4) receptors (Homo sapiens, UniProt P32245); type: binding; conditions: HEK 293 cell membranes; about […] 125I-NDP-α-MSH; 180 minutes at 25 C; read-out: hMC4 IC50 (nM) 125I NDP-MSH
T2 construct: expressed in transfected cells; membrane fraction used

[3] = type: binding, human; conditions: Table II; HEK 293 cell membranes; 125I-AGRP 1.10 nM; read-out: hMC3 IC50 (nM) 125I-AGRP
[4] = molecular target: T1, human melanocortin-3 (MC-3) receptors; test: Melanocortin receptor binding assay, 125I-AGRP competition, MC-3; conditions: Table II; HEK 293 cell membranes; 125I-AGRP 1.10 nM; read-out: hMC3 IC50 (nM) 125I-AGRP
[5] = molecular target: T3, human melanocortin-4 (MC-4) receptor (human, UniProt P32245); test: displacement of 125I-AGRP, membranes of HEK 293 cells with hMC4 (value column 2; its head prints hMC3)
[6] = molecular target: human melanocortin-3 (MC-3) receptor (human, UniProt P41968); test: displacement of 125I-NDP-alpha-MSH, membranes of HEK 293 cells with hMC3 (value column 3)
[7] = molecular target: T3, human melanocortin-4 (MC-4) receptor; test: displacement of 125I-NDP-alpha-MSH, membranes of HEK 293 cells with hMC4 (value column 1)

## alpha-MSH [reference compound]
[1]
  IC50: 255 nM

## Ac-Nle-Asp-His-dPhe-Arg-Trp-Lys [MTII, reference compound]
[1]
  IC50: 20 nM

## Cys-Abu-Asp-Pro-Abu-Ala-Thr-Abu-Tyr-Cys-Arg-Phe-Phe-Asn-Ala-Phe-Cys-Tyr-Cys-Arg-Lys-Leu [SEQ ID NO:12]
[2]
  IC50: 114 nM
[3]
  IC50: 13 nM
[1]
  IC50: 650 nM
[4]
  IC50: 101 nM

## CRFFNAFC (disulfide 1-8 (inferred)) [peptide of SEQ ID NO:6]
[5]
  IC50: 636 nM

## CRFFGSAC (disulfide 1-8 (inferred)) [peptide of SEQ ID NO:7]
[5]
  IC50: 497 nM

## SYSMEHFRWGKPV (ligand) [alpha-MSH]
[6]
  IC50: 255 nM

B1: Mkd5-AGRP (ligand)
chain: APMEGIRRPDQALLPELPGLGLRAPLKKTTAEQAEEDLLQEAQALAEVLDLQDREPRSSRRCVRLHESCLGQQVPCCDPCATCYCRFFNAFCYCRKLGTAMNPCSRT
[7]
  IC50: 57 nM and 65 nM and 49 nM
